Laboratory results taken from patent US20080019931A1, “Method and composition for producing enhanced fingernails” (PROSTRONG, INC, priority 2004, published 2008).

Experiment: Solubility in water
Assay type: physicochemical

For Calcium Phosphate Monobasic, the solubility in water was “soluble in water”.
With Calcium Fluorophosphate the solubility in water was “soluble in water”.
